This passage reports IC50, inhibition of fibrinogen clotting results from patent US6060451.

The assay addresses bovine α-thrombin (bovine) (UniProt P00735).

Turning to “native desulfo hirudin^45-65 (from UniProt P01050) (peptide)”, the IC50, inhibition of fibrinogen clotting was found to be 940 nM.
